In the experiment the test system is OVCAR-8 cells. In words: Drug-siRNA combination screen: 346-compound anticancer library at 100 nM, CCK-8 viability.

The structures appear in SMILES notation.

On to `CN(Cc1cnc2nc(N)nc(N)c2n1)c1ccc(C(=O)N[C@@H](CCC(=O)O)C(=O)O)cc1` [Methotrexate], for which the “synergy / antagonism of drug with gene knockdowns, in words” value was “antagonism with most knockdowns”.

(Values after patent publication US11946094B2, “Combination therapies and methods of use thereof” (Augusta University Research Institute, Inc., priority 2017, dated 2024).)
